Chains of the proteins cited; added tags and fusions are not shown.
UniProt P51531, whole entry: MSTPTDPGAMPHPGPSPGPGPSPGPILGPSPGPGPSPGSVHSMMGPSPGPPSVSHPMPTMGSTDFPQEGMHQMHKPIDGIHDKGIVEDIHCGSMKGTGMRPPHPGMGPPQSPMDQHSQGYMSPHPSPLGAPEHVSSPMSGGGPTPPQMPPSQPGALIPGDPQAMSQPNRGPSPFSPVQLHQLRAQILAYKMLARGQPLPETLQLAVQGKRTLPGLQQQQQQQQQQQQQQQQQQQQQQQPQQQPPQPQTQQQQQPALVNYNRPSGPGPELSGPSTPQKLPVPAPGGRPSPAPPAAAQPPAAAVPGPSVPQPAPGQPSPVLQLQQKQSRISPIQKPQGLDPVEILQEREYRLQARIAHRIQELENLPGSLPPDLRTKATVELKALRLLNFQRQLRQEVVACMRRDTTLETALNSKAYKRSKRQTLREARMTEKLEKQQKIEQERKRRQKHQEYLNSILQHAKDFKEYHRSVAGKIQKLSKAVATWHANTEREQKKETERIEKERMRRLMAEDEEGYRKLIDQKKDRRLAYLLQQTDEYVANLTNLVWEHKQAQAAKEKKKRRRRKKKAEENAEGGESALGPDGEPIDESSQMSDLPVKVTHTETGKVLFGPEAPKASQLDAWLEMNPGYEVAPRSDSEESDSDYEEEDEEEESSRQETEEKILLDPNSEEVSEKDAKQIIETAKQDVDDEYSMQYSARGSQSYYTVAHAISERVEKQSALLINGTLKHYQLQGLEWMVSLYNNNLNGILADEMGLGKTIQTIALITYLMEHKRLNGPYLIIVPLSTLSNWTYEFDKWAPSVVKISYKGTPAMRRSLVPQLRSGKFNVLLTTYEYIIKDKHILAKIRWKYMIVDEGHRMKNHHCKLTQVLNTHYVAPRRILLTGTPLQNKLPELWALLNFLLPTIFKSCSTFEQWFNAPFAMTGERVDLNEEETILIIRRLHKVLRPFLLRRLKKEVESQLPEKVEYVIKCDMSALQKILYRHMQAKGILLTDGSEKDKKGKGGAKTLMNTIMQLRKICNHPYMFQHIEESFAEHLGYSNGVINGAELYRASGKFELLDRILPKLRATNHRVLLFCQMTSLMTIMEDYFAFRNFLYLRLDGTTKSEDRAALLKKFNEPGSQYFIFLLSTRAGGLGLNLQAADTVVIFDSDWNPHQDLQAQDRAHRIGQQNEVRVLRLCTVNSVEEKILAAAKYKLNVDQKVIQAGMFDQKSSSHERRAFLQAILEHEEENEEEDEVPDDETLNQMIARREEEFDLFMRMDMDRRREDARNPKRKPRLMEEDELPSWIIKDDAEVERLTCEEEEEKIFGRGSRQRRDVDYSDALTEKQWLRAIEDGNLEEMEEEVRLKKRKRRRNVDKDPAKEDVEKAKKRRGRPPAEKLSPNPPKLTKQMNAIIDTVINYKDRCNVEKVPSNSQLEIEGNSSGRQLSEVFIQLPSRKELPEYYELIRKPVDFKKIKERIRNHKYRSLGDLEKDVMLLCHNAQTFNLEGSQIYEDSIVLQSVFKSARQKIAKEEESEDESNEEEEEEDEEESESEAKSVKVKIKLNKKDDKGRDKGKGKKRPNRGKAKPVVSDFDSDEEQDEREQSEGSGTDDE
UniProt P51532, whole entry: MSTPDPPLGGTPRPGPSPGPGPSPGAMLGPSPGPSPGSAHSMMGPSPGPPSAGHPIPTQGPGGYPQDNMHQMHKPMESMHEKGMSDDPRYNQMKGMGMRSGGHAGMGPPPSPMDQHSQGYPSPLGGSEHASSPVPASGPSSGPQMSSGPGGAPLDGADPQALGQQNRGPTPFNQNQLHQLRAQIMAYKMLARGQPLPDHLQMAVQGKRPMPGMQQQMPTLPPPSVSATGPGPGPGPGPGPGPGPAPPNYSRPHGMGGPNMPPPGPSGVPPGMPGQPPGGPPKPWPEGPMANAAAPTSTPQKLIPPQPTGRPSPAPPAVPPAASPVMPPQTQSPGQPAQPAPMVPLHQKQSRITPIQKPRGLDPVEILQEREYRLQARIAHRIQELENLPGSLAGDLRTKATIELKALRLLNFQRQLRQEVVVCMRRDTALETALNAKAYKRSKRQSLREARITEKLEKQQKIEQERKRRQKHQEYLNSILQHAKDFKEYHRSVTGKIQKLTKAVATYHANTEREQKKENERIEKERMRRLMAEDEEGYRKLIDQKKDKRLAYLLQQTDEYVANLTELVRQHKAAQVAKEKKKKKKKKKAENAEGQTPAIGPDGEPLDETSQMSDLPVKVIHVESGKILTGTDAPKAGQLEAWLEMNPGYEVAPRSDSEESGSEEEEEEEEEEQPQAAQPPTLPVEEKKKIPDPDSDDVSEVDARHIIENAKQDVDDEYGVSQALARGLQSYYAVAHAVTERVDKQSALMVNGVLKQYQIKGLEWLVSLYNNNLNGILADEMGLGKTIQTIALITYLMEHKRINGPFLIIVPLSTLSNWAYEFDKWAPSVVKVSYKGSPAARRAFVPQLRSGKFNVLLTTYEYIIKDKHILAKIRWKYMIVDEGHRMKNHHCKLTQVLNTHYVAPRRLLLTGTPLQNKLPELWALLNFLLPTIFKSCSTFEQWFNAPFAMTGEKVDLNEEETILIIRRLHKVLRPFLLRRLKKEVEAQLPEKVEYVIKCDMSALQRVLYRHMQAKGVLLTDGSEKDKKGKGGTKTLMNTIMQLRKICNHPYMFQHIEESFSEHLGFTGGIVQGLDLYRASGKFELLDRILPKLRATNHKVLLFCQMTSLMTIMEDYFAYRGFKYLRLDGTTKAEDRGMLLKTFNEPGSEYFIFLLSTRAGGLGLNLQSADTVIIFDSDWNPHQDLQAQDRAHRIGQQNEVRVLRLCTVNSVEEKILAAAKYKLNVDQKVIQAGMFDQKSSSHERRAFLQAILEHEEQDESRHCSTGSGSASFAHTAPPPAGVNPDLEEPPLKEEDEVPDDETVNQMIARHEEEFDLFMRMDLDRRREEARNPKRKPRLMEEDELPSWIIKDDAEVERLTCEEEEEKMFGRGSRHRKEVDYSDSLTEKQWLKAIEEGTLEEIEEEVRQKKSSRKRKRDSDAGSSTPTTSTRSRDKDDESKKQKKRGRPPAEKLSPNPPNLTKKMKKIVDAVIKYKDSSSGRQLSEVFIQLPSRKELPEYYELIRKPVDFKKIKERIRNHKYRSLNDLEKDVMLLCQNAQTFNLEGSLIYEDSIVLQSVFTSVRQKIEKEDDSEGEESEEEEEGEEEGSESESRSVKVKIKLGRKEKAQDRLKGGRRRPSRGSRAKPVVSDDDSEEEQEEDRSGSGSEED

According to patent US12187719B2, “Proteolysis targeting chimera (PROTACS) as degraders of SMARCA2 and /or SMARCA4” (Boehringer Ingelheim International GmbH, priority 2018, dated 2025):

Columns and labels:
SMARCA2 = SMARCA2 (Homo sapiens, UniProt P51531); assay: Protein degradation assay in A549 cells, SMARCA2 levels by WES capillary electrophoresis; conditions: A549 (NSCLC) cells with SMARCA4 mutation corrected to wild type, 18 h incubation; for Dmax SMARCA2: maximal amount of degraded protein relative to initial levels; for DC50: read-out: DC50 SMARCA2, concentration at which half maximal degradation is achieved, normalised to GAPDH
SMARCA4 = SMARCA4 (Homo sapiens, UniProt P51532); assay: Protein degradation assay in A549 cells, SMARCA4 levels by WES capillary electrophoresis; conditions: A549 (NSCLC) cells with SMARCA4 mutation corrected to wild type, 18 h incubation; for Dmax SMARCA4: maximal amount of degraded protein relative to initial levels; for DC50: read-out: DC50 SMARCA4, concentration at which half maximal degradation is achieved, normalised to GAPDH

| Compound | Dmax SMARCA2 (SMARCA2) [%] | DC50 (SMARCA2) [nM] | Dmax SMARCA4 (SMARCA4) [%] | DC50 (SMARCA4) [nM] |
| --- | --- | --- | --- | --- |
| Cc1ncsc1-c1ccc(CNC(=O)[C@@H]2C[C@@H](O)CN2C(=O)[C@@H](NC(=O)C2(F)CC2)C(C)(C)C)c(OCCc2ccc(CN3CCN(c4cc(-c5ccccc5O)nnc4N)CC3)c(F)c2)c1 | 95 | 55 | 95 | 33 |
| Cc1ncsc1-c1ccc(CNC(=O)[C@@H]2C[C@@H](O)CN2C(=O)[C@@H](NC(=O)C2(F)CC2)C(C)(C)C)c(OCC(C)c2ccc(CN3CCN(c4cc(-c5ccccc5O)nnc4N)CC3)cc2)c1 (stereo partly drawn) | 87 | 118 | 100 | 78 |
| Cc1ncsc1-c1ccc(CNC(=O)[C@@H]2C[C@@H](O)CN2C(=O)[C@@H](NC(=O)C2(F)CC2)C(C)(C)C)c(OCCc2ccc(CN3CCN(c4cc(-c5ccccc5O)nnc4N)CC3)cc2F)c1 | 92 | 84 | 90 | 168 |
